# According to US20260184692A1, “HETEROCYCLIC COMPOUNDS, PREPARATION METHODS AND USES THEREOF” (InventisBio Co., Ltd., priority 2022, published 2026):
# The chains behind the UniProt entries cited, without tags or fusion partners.
# UniProt O75469, whole entry: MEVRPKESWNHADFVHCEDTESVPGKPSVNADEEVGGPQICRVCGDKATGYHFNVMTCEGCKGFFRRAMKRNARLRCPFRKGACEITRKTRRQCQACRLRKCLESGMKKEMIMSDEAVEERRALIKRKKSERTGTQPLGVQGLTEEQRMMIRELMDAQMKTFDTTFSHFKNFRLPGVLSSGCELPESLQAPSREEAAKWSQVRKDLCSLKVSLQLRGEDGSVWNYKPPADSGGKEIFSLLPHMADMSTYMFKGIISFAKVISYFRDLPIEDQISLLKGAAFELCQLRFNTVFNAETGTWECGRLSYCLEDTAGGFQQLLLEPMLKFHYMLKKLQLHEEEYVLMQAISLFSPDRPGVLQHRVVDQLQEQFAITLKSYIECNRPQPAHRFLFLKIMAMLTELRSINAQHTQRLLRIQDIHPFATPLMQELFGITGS
# UniProt P11712, whole entry: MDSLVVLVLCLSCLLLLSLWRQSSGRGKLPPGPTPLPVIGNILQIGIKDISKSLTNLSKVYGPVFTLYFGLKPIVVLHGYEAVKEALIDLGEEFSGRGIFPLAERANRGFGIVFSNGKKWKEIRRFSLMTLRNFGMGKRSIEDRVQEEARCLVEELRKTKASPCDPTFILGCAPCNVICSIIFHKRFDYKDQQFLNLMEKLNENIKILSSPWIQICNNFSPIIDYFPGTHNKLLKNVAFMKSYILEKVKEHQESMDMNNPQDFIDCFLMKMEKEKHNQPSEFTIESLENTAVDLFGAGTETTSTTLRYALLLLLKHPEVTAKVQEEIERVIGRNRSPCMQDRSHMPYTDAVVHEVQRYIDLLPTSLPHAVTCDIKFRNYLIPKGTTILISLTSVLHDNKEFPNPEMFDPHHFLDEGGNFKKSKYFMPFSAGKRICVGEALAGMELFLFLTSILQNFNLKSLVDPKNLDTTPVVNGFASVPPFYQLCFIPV
# Legend:
# [1] = Human Plasma Protein Binding Assay (dialysis); settings: 1 μM compound, dialysis 6 hr at 37 °C
# PXR = PXR (Homo sapiens, UniProt O75469); assay: In Vitro PXR Activation Study (DPX2 cells); settings: concentration 30 uM, 48 h treatment
# P450 2C9 = P450 2C9 (Homo sapiens, UniProt P11712); assay: In Vitro Cytochrome P450 Inhibition Study; settings: read-out: 2C9, IC50; human liver microsomes (HLM), test compound 0.137 μM to 10 μM, 10 min at 37 °C
smiles,measurement,setting,value
Cc1cc(NC(=O)c2ccc(NS(=O)(=O)CCO)cc2N2CCC3(CC2)CC3)nc(N2CCC(F)(F)CC2)n1,% Unbound,[1],0.012%
same,Induction Fold,PXR,5.8 x
same,IC50,P450 2C9,2500 nM
